Publication PMC5653977, “Spironolactone is an antagonist of NRG1‐ERBB4 signaling and schizophrenia‐relevant endophenotypes in mice” (EMBO Molecular Medicine, 2017)

Test system: NRG1-ERBB4 signaling
Experiment: Nrg1-ERBB4-PIK3R1 split TEV co-culture compound screen of the NIH Clinical Collection

CCN(Cc1ccncc1)C(=O)C(CO)c1ccccc1 (stereo not shown) [TROPICAMIDE, reference compound]
Z-SCORE: 0.07
